Measurements reported in IntAct's records for PubMed 16938345.

B1: Linker for activation of T-cells family member 1 (Homo sapiens), O43561 (parent)
chain: MEEAILVPCVLGLLLLPILAMLMALCVHCHRLPGSYDSTSSDSLYPRGIQFKRPHTVAPWPPAYPPVTSYPPLSQPDLLPIPRSPQPLGGSHRTPSSRRDSDGANSVASYENEGASGIRGAQAGWGVWGPSWTRLTPVSLPPEPACEDADEDEDDYHNPGYLVVLPDSTPATSTAAPSAPALSTPGIRDSAFSMESIDDYVNVPESGESAEASLDGSREYVNVSQELHPGAAKTEPAALSSQEAEEVEEEGAPDYENLQELN
partner: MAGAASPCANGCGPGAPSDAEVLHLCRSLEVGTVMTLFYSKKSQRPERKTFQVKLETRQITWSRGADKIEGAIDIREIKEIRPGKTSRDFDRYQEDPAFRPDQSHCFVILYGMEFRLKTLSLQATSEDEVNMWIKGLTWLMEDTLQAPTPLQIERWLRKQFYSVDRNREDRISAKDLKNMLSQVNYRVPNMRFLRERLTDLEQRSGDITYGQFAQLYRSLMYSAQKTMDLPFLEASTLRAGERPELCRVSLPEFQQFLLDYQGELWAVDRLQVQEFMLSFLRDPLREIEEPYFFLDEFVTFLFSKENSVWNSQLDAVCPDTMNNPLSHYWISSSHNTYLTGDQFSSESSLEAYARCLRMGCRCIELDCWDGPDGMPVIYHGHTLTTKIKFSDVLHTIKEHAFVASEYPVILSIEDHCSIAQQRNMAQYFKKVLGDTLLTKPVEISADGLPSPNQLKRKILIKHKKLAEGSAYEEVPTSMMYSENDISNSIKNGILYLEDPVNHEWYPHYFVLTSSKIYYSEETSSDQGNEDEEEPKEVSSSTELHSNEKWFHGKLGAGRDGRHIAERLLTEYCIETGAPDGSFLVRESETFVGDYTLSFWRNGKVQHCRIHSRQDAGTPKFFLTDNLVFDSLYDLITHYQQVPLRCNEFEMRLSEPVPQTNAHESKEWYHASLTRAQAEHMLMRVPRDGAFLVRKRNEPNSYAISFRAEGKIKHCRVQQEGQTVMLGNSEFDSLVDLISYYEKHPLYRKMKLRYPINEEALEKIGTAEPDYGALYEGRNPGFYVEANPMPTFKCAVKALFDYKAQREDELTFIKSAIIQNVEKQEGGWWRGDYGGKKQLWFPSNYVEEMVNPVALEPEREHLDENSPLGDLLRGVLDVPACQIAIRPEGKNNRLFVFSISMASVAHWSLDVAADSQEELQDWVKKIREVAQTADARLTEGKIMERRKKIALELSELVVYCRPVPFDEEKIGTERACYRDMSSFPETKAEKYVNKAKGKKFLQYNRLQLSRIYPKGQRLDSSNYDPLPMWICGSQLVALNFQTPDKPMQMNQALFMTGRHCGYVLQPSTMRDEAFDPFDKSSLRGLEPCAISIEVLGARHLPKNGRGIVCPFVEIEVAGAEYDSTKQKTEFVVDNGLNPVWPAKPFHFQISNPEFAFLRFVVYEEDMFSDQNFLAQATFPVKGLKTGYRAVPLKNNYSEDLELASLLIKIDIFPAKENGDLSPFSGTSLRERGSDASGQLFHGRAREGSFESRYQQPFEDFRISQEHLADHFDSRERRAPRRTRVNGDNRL

Variants of: B1
Details: with plcg1_human PLCG1, P19174

| Variant | effect of a mutation on the interaction |
| --- | --- |
| MEEAILVPCVLGLLLLPILAMLMALCVHCHRLPGSYDSTSSDSLYPRGIQFKRPHTVAPWPPAYPPVTSYPPLSQPDLLPIPRSPQPLGGSHRTPSSRRDSDGANSVASYENEGASGIRGAQAGWGVWGPSWTRLTPVSLPPEPACEDADEDEDDYHNPGYLVVLPDSTPATSTAAPSAPALSTPGIRDSAFSMESIDDFVNVPESGESAEASLDGSREFVNVSQELHPGAAKTEPAALSSQEAEEVEEEGAPDYENLQELN [Y200F;Y220F] | decreasing interaction |
